From PubChem BioAssay
Rows were chosen to be rich in hits. Some 1.2% of all compounds tested hit in one or more screens of this group.
miR122 inh = inhibitors of miR-122 in Huh7 cells; Huh7 miR-122 Renilla luciferase sensor, 48 h; neutral wells = 0, positive control = 100; activation (reporter increase), % at 12.5 µM; AID 602342; hit rate 0.3% among 340,000;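 active = mean replicate activation score at least 90 and every replicate individually at or above 90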;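 also: higher luciferase means less miR-122 activity so hits act as miR-122 inhibitors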
Glyco luc inh = blocks N-linked glycosylation in D54 reporter cells. D54 ERlucT glycosylation luciferase reporter, 24 h; percent of 100 nM tunicamycin response. reporter increase, % at 12.5 µM. hit rate 0.23% among 360,000;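 active = mean luciferase reporter signal, scaled so untreated is 0 and the glycosylation-blocking control 100, at or above a set limit in every replicate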;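 also: luciferase carries N-glycosylation sites so blocking glycosylation raises the light; 0% = median of neutral control wells and 100% = median of 100 nM tunicamycin wells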
UUG fidelity = modulators of yeast start codon fidelity, primary screen, whole organism, S. cerevisiae, single point, plate reader | activity score, % at 18.7 µM | 350,000 tested, 0.13% active | S. cerevisiae UUG-firefly luciferase reporter, luminescence/redox ratio;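 active means replicate mean at a twofold rise or more, about +100% in these data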;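 further: firefly luciferase made from a UUG start codon reports start codon fidelity; reporter light over untreated wells divided by growth signal over untreated wells; some hits fall short of that in this replicate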
C2C12 statin = suppression of simvastatin myotoxicity; C2C12 myotubes + simvastatin, ATP luminescence, 48 h; scaled: DMSO 0, geranylgeraniol control 100; rescue of ATP level, % at 7.49 µM; hit rate 0.78% among 330,000;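 active = mean ATP rescue above about 67%, or every replicate alone reaching that limit, limit read from the data, passing the limit was not always enough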;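 also: myotubes were challenged with 10 µM simvastatin during compound exposure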
Cneo AK release = Cryptococcus neoformans lysis via adenylate kinase release; C. neoformans lysis, adenylate kinase release luminescence, 4 h; normalised: neutral wells 0, clomiphene wells 100; lysis activity, % at 15 µM; hit rate 0.2% among 360,000; AID 651654;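 active = mean lysis activity across replicates of at least 80%, whatever share of replicates individually reach that level; inactive = mean lysis activity below 80%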
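Test system: log-phase Cryptococcus neoformans yeast cells; Quantity: yeast cell density of 5 × 10^6 cells/mL; Buffer or medium: YPD; Doses: single compound concentration per well; Timing: 4 h at 37 °C static, read 1 h later; Measured by: AK luminescence; Read-out basis: lysis from increased AK signal; Control set: Clomiphene as positive control.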
The depositor's hits bear a star; . = no result; ! = not confirmed by another sample; [ ] = another dose, or the depositor's remark.

The line under a structure holds: miR122 inh, UUG fidelity, Glyco luc inh, Cneo AK release, C2C12 statin
1) CN1CCN(C(=O)C[C@@H]2C[C@H]3c4cc(NS(=O)(=O)c5ccc(F)cc5)ccc4O[C@H]3[C@@H](CO)O2)CC1
  3[16.7 µM], 1, ., 5, 0
2) CC1=C(C(=O)N2CCCCCC2)CC(CC(=O)NCc2ccco2)C(=O)N1Cc1ccccc1 (stereo not drawn)
  0, 9, 3, 1, 9
3) COc1ccccc1C#Cc1ccc2c(c1)O[C@H](CN(C)C(C)=O)[C@@H](C)CN([C@@H](C)CO)S2(=O)=O
  52[16.7 µM], 23, ., -11, -15
4) COc1ccccc1C#Cc1ccc2c(c1)O[C@@H](CN(C)C(C)=O)[C@@H](C)CN([C@H](C)CO)S2(=O)=O
  20[16.7 µM], 35, ., 99*, -19
5) C[C@H]1CN([C@@H](C)CO)S(=O)(=O)c2ccc(C#CCN(C)C)cc2O[C@@H]1CN(C)Cc1ccc2c(c1)OCO2
  104*[16.7 µM], 12, ., 4, -54
6) C[C@H](CO)N1C[C@H](C)[C@H](CN(C)Cc2ccccc2)Oc2cc(C#Cc3ccccn3)ccc2S1(=O)=O
  -7[16.7 µM], -5, ., 99*, 27
7) CN1[C@H](C(=O)N2CCc3ccccc3C2)[C@@H](CO)[C@@H]2Cn3c(ccc(-c4cccnc4)c3=O)[C@@H]21
  41[16.7 µM], ., ., 104*, 3
8) CN1[C@H](C(=O)N2CCc3ccccc3C2)[C@@H](CO)[C@@H]2Cn3c(ccc(-c4ccncc4)c3=O)[C@@H]21
  4[16.7 µM], ., ., -1, -4
9) CC=Cc1ccc2n(c1=O)C[C@@H]1[C@@H](CO)[C@H](C(=O)N3CCc4ccccc4C3)N(C(=O)C3CC3)[C@H]21 (mixture of isomers)
  ., ., ., 97*, -4
10) C[C@@H]1CN([C@@H](C)CO)C(=O)c2cc(N(C)C)ccc2O[C@@H](C)CCCCO[C@H]1CN(C)Cc1ccc2c(c1)OCO2
  1[16.7 µM], ., ., -1, 2
11) Cc1cc(=O)[nH]c(SCC2(O)C3CC4CC(C3)CC2C4)n1 (stereo not drawn)
  62, -2, -1, 1, 113*
12) CCc1cnc(N2[C@H](C#N)[C@H](c3ccc(C#CCC4CCCC4)cc3)[C@@H]2CO)s1
  ., -7, ., 1, 11
13) c1coc(CN2CNc3nc4ccccc4n3C2)c1
  ., ., 1, ., .
14) CCCN1CN(Cc2ccco2)c2nc3ccccc3n2C1
  -3, -7, 3, -1, 89*
15) O=C1NC[C@H](CC2CCCCC2)N(CC2CCCCC2)C1=O
  4, -5, 1, 1, 107*

One compound at a time, as listed above:
COc1ccccc1C#Cc1ccc2c(c1)O[C@@H](CN(C)C(C)=O)[C@@H](C)CN([C@H](C)CO)S2(=O)=O is entered as miR122 inh = 20[16.7 µM]; UUG fidelity = 35; Glyco luc inh = .; Cneo AK release = 99*; C2C12 statin = -19
C[C@H]1CN([C@@H](C)CO)S(=O)(=O)c2ccc(C#CCN(C)C)cc2O[C@@H]1CN(C)Cc1ccc2c(c1)OCO2 is entered as miR122 inh = 104*[16.7 µM]; UUG fidelity = 12; Glyco luc inh = .; Cneo AK release = 4; C2C12 statin = -54
CCc1cnc(N2[C@H](C#N)[C@H](c3ccc(C#CCC4CCCC4)cc3)[C@@H]2CO)s1 is entered as miR122 inh = .; UUG fidelity = -7; Glyco luc inh = .; Cneo AK release = 1; C2C12 statin = 11

Next compounds.
The line under a structure holds: miR122 inh, UUG fidelity, Glyco luc inh, Cneo AK release, C2C12 statin
16) CC(O)[C@H]1CNC(=O)C(=O)N1CC1CCCCC1 (stereo partly drawn)
  6, -1, 0, 11, 6
17) COc1ccc(CNS(=O)(=O)c2ccc3c(c2)CCN3C(=O)C2CCC2)cc1
  -4, -19, 2, 0, 113*
18) C[C@@H]1CN([C@H](C)CO)C(=O)c2c(c3ccccc3n2C)-c2ccccc2CO[C@H]1CN(C)S(=O)(=O)c1cccs1
  ., ., ., 90*, 6
19) C[C@@H]1CN([C@H](C)CO)C(=O)c2cc(NC(=O)Nc3ccc(F)cc3)ccc2O[C@@H](C)CCCCO[C@H]1CN(C)S(=O)(=O)c1cccs1
  -5, -4, -6, 0, 141*!
20) C[C@@H]1CCCCO[C@H](CN(C)S(=O)(=O)c2ccccc2)[C@@H](C)CN([C@@H](C)CO)C(=O)c2cc(NC(=O)Nc3ccc(F)cc3)ccc2O1
  -7[16.7 µM], 1, ., 2, .
21) C[C@H](CO)N1C[C@H](C)[C@H](CN(C)S(=O)(=O)c2cccs2)OCc2ccccc2-c2c(n(C)c3ccccc23)C1=O
  ., ., ., 1, 19
22) C[C@H]1CN([C@@H](C)CO)C(=O)c2cc(NC(=O)Cc3ccccc3)ccc2O[C@@H]1CN(C)S(=O)(=O)c1cccs1
  0[16.7 µM], 11, ., 4, 98*
23) C[C@@H]1CCCCO[C@@H](CN(C)S(=O)(=O)c2ccccc2)[C@H](C)CN([C@@H](C)CO)C(=O)c2cc(NC(=O)Nc3ccc(F)cc3)ccc2O1
  -4[16.7 µM], 29, ., 105*, .
24) C[C@H](CO)N1C[C@H](C)[C@@H](CN(C)S(=O)(=O)c2cccs2)Oc2ccc(NC(=O)Cc3ccccc3)cc2C1=O
  -11, 28, 2, 11, -9
25) CN1[C@@H]2c3ccc(-c4cncnc4)c(=O)n3C[C@@H]2[C@@H](CO)[C@@H]1C(=O)N1CCc2ccccc2C1
  1[16.7 µM], ., ., ., -30
26) CS(=O)(=O)Nc1ccc2c(c1)[C@@H]1C[C@H](CC(=O)NCC(F)(F)F)O[C@H](CO)[C@@H]1O2
  -3[16.7 µM], -11, ., 0, 1
27) C[C@@H]1CCCCO[C@@H](CN(C)S(=O)(=O)c2cccs2)[C@H](C)CN([C@@H](C)CO)C(=O)c2cc(NC(=O)CCC(F)(F)F)ccc2O1
  47[16.7 µM], 39, ., 98*, .
28) CC(C)NC(=O)Nc1ccc2c(c1)C(=O)N([C@@H](C)CO)C[C@H](C)[C@@H](CN(C)S(=O)(=O)c1cccs1)OCCCC[C@H](C)O2
  37[16.7 µM], 29, ., 87*, .
29) C[C@@H]1CN([C@@H](C)CO)C(=O)c2cc(NC(=O)CCC(F)(F)F)ccc2O[C@@H](C)CCCCO[C@@H]1CN(C)S(=O)(=O)c1cccs1
  16[16.7 µM], 13, ., 0, .
30) C[C@@H]1CN([C@@H](C)CO)C(=O)c2ccccc2-c2ccccc2CO[C@H]1CN(C)Cc1ccc(C(=O)O)cc1
  ., -4, ., -2, .
31) Cc1cccc(-c2nnc3n2N=C(c2ccccc2Br)CS3)c1
  -7, -4, -2, 0, 103*
32) COc1ccc(C2=Nn3c(nnc3-c3ccc(OC)cc3)SC2)cc1
  30, -17, 29*, 2, -43
33) Cc1cc(-c2nnc3n2N=C(c2ccccc2Br)CS3)n[nH]1
  ., ., 1, ., .
34) CC=Cc1ccc2n(c1=O)C[C@@H]1[C@@H](CO)[C@H](C(=O)Nc3nccs3)N(Cc3cc(F)ccc3F)[C@H]21 (mixture of isomers)
  ., ., ., -1, -18
35) CC1COCC(C)N1C1=C(Cl)C(=O)c2ccccc2C1=O (stereo not drawn)
  ., -16, 34*, -8, -204
36) O=C(c1cccc(S(=O)(=O)Nc2ccc(F)cc2)c1)N1CCC1
  29, -16, 0, -1, -5
37) C[C@H](CO)N1C[C@H](C)[C@H](CN(C)C(=O)Nc2ccc(C(F)(F)F)cc2)Oc2ccc(N(C)C)cc2C1=O
  -5[16.7 µM], 38, ., 2, -62
38) O=C(NCC(F)(F)F)[C@@H]1[C@@H](CO)[C@@H]2Cn3c(cccc3=O)[C@@H]2N1C(=O)c1ccccc1F
  ., ., ., 4, -5
39) Cc1ccc(-c2cnc3c(c2)C(=O)N([C@H](C)CO)C[C@H](C)[C@@H](CN(C)Cc2ccccc2C(=O)O)O3)cc1
  -9[16.7 µM], 8, ., -2, 1
40) Cc1ccc(C(=O)Nc2nc3c(s2)CCCC3)o1
  -2, -56, -12, -13, -23
41) O=C(Nc1nc2c(s1)CCCC2)c1ccc(Br)o1
  0, -23, -9, -11, 112*
42) Cc1ccc(C)c(C(O)c2ncc(-c3ccccc3Cl)[nH]2)c1 (stereo not drawn)
  24, -23, 1, 0, 6
